Sfp inh: qHTS Assay for Inhibitors of Bacillus subtilis Sfp phosphopantetheinyl transferase (PPTase); 4'-phosphopantetheinyl transferase ffp (Bacillus subtilis), Q9F4F7; Biochemical Sfp PPTase activity, qHTS; Potency, µM, for inactives: max response, negative = inhibition, most hits filed as inhibitors; hit rate 3.5% among 310,000; AID 1490, 2009; active = well fitted inhibition curve with a large enough effect; inconclusive = small, poorly fitted or top-dose-only effect, or another doubt; inactive = no such curve, though single readings can be large or run the other way;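 also: the enzyme is Sfp with the accession as filed and its product quenches rhodamine fluorescence; potency is read from the fitted curve at half-maximal effect; 0% = enzyme reaction without inhibitor and -100% = no enzyme wells; top concentration of the series not given in the record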
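After 15 min at room temperature with compound, 15 nM Sfp received 5 uM rhodamine-CoA plus 12.5 uM BHQ-2-ybbR (50 mM Hepes pH 7.6, 10 mM MgCl2). Rate came from the fluorescence difference over 30 min, ex 525/em 598 nm.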
Lamin A splicing: LMNA splicing modulation; HeLa LMNA splicing GFP/RFP minigene ratio, 48 h; Potency, µM (highest dose often 46.1 µM), inactives show top-dose ratio change, negative = inhibition, hits mostly inhibitors; 200,000 compounds, 0.01% hits; AID 1487; active = well fitted inhibition curve with a large enough effect in the signal ratio, with a control signal flat, not every such curve was filed as active; inconclusive = small, poorly fitted or top-dose-only effect, or effect the other way, or a change in a side signal; the % refers to the signal ratio; note: potency is the fitted concentration of half-maximal effect; % is set by controls: 0 for no effect and ±100 for the full control effect
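Read-out is the ratio of GFP to DsRed2 object intensity, acquired by 488 nm laser-scanning cytometry on HeLa lamin A-EGFP minigene reporter cells. Compound incubation 48 hrs at 37 °C in Opti-MEM with 2% FBS; DMSO 0.5% final.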
KDM4E inh: inhibitors of human JMJD2E histone demethylase; B2RXH2; JMJD2E catalytic domain, FDH-coupled NADH fluorescence (FDH is formaldehyde dehydrogenase); Potency, µM (top dose mostly 57.1 µM), inactives show top-dose activity change, negative = inhibition, usual class: inhibitors; 230,000 compounds, 1.6% hits; AID 2147; active = well fitted inhibition curve with a large enough effect, not every such curve was filed as active; inconclusive = small, poorly fitted or top-dose-only effect, or another doubt; inactive = no such curve, though single readings can be large or run the other way;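 note: potency is the fitted concentration of half-maximal effect; 0% = wells with enzyme and -100% = buffer wells without enzyme; nearly all actives have a fitted effect of over 50% in size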
miR-21 FLuc: miR-21 reporter, rising signal | AID 2288 | HeLa miR-21 FLuc reporter, luciferase, 48 h | 340,000 tested, under 10 active | Potency, µM (titrated, usually from 38.3 µM), for the others: at the top dose reporter change, positive = more light; active = well fitted rising curve with a large enough effect; inconclusive = small, poorly fitted or top-dose-only effect; inactive = no such curve, though single readings can be large or run the other way;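 also: % of control where 0% means no effect; miR-21 action dims this reporter so a rising signal means less miR-21 action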
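Compounds were titrated across several concentrations (up to approximately 40 uM) and incubated 48 hours with HeLa miR-21-FLuc reporter cells (miR-21 target sequence downstream of FLuc, endogenous miR-21). Readout was firefly luciferase luminescence after lytic detection reagent.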
G9a inh: inhibitors of human histone lysine methyltransferase G9a | AID 504332 | 350,000 compounds, 8.8% hits | G9a H3K9 monomethylation, AlphaScreen, 2 h | Potency, µM (series often up to 102 µM), for inactives: top-dose activity, negative = inhibition, hits mostly inhibitors; note: potency is the fitted concentration of half-maximal effect; % is set by controls: 0 for no effect and ±100 for the full control effect; nearly all actives have a fitted effect of over 75% in size
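AlphaScreen detection with an anti-monomethyl H3K9 antibody quantified product after a 2 h room-temperature reaction containing 500 nM biotinylated H3K9 peptide, 20 µM SAM and 20 nM enzyme, which had been preincubated 15 min with compound.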
ALDH1A1 block: inhibitors of human aldehyde dehydrogenase 1A1 | Purified ALDH1A1, NADH fluorescence, propionaldehyde substrate | Potency, µM (titrated, usually from 75.3 µM), for inactives: top-dose activity, negative = inhibition, hits mostly inhibitors | 220,000 compounds, 7.3% hits; active = well fitted inhibition curve with a large enough effect, not every such curve was filed as active; inconclusive = small, poorly fitted or top-dose-only effect, or another doubt; inactive = no such curve, though single readings can be large or run the other way;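 note: potency is the fitted concentration of half-maximal effect; plate controls were no enzyme wells and a reference inhibitor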
Numbers without * were called inactive; ? = inconclusive; . = not tested or not shown; [ ] = remark or other dose. Shown are actives, neighbours in structure and some others; about 13% of the full set was active somewhere. Unless noted, calls come from the whole dose curve; as a rule, active = well fitted curve in the direction sought with a large enough effect; inconclusive = small, poorly fitted or top-dose-only effect, or another doubt; inactive = no such curve, though single readings can be large; an effect the other way counts as inactive or inconclusive.

SMILES	Sfp inh	Lamin A splicing	KDM4E inh	miR-21 FLuc	G9a inh	ALDH1A1 block
CCOC(=O)c1cnc(N2CCN(c3ccc(OC)cc3)CC2)c2ccccc12	.	-15%[46 µM]	.	3%	14µM*	.
CCOC(=O)c1cnc2c(ccc3ccccc32)c1Nc1ccc(OC)c(OC)c1	.	.	.	22%	8.9µM*	.
COc1ccccc1N1CCN(c2ncnc3sc(C(=O)NCC4CCCO4)c(C)c23)CC1 (stereo unspecified)	13%	.	.	9%	.	.
CCOC(=O)c1sc2nc(CC(=O)OC)nc(NCCN3CCOCC3)c2c1C	15%	-15%	?	2%	7%[12.7 µM]	?
CCOC(=O)c1sc2nc(CC(=O)OC)nc(N3CCN(c4ccc(OC)cc4)CC3)c2c1C	16%	?	-5%	18%	?	0.1µM*
O=C1CCC(CCC(=O)N2CCCC(C(=O)c3cccc(C(F)(F)F)c3)C2)=NN1 (stereo unspecified)	2%	.	2%	0%	4%	-12%
Cc1cc(O)ccc1Nc1nc2ccccc2nc1Nc1ccc(O)cc1C	56µM*	?	25µM*	-20%	4.5µM*	22µM*
COc1cc(C(=O)Nc2nc3nc(-c4ccccc4)cc(=O)n3[nH]2)cc(OC)c1OC	.	.	.	-2%	?	.
CCN(CC(=O)Nc1cc(Cl)ccc1C)C(=O)CCS(=O)(=O)c1ccc(C)cc1	.	.	.	.	50µM*	.
Cc1ccc(S(=O)(=O)CCC(=O)Nc2cc(Cl)ccc2-n2cncn2)cc1	.	.	.	.	56µM*	.
COc1cccc(-c2ccnc3c(-c4ccc(F)cc4)c(C)nn23)c1	.	.	.	-19%	6%[59 µM]	.
Cc1ccc(NNC(=S)Nc2ccc(C(C)C)cc2)c(C)c1	-9%	?	-30%	-8%	11µM*	22µM*
Cc1ccc(C)c(NC(=S)NCCc2ccc(F)cc2)c1	0%	3%	4%	6%	11%	12%
Cc1ccc(C)c(NC(=S)NNc2ccc(F)cc2F)c1	-17%	.	.	1%	45µM*	.
CCc1cccc(NC(=O)Cn2c(=O)n(CC(=O)NCCc3ccccc3)c(=O)c3ccccc32)c1	.	.	.	-4%	-17%[59 µM]	.
CC1(C)COC(c2cc([N+](=O)[O-])ccc2Cl)=N1	8%	14%	-2%	-1%	3%[59 µM]	3%
CC1(C)COC(/C=C/c2cccc([N+](=O)[O-])c2)=N1	-2%	.	1%	?	1%	14µM*
C=C1C[C@H]2[C@@H]3CCc4cc(OC)ccc4[C@H]3CC[C@]12C	.	.	.	.	12%[2.33 µM]	.
COc1ccc2c(c1)[C@]1(C)CCC(=O)C[C@H]1CC2	0%	3%	-27%	.	.	2.8µM*
Cc1ccccc1CSc1cn(CC(=O)N2CCCC2)c2ccccc12	.	.	.	2%	1%[59 µM]	.
COCCNC(=O)CN(CCc1ccccc1)S(=O)(=O)c1ccc(OC)cc1	?	0%	3%	1%	?	?
COc1ccc(N(CC(=O)Nc2ccccc2C(=O)O)S(=O)(=O)c2ccc(C)c([N+](=O)[O-])c2)cc1	12%	-11%[46 µM]	-3%	-3%	40µM*	?
COc1ccc(N(CC(=O)N/N=C/c2ccco2)S(=O)(=O)c2ccccc2)cc1	1%	-9%	-7%	-10%	50µM*	-12%
COc1ccc(NC(=O)CN(c2ccc([N+](=O)[O-])cc2)S(=O)(=O)c2ccccc2)cc1	6%	-17%	-6%	19%	?	-2%
Cc1ccc(N(CC(=O)N/N=C/c2ccco2)S(=O)(=O)c2ccccc2)cc1	32µM*	8%	0%	-3%	?	0%
Later entries
SMILES	Sfp inh	Lamin A splicing	KDM4E inh	miR-21 FLuc	G9a inh	ALDH1A1 block
COc1ccc(S(=O)(=O)N(CCc2ccccc2)CC(N)=O)cc1	-24%	.	-4%	2%	.	7.9µM*
Cc1ccc(Cl)cc1NC(=O)C(C)n1nc(-c2ccccc2)ccc1=O (stereo unspecified)	.	.	.	-7%	-5%[59 µM]	.
CCCCn1nc(C(=O)N2CCN(S(=O)(=O)c3ccccc3)CC2)c2ccccc2c1=O	.	.	.	.	-40%	.
CCc1nn2c(=O)cc(COC(=O)c3cccc(NC(=O)c4cccs4)c3)nc2s1	.	2%[46 µM]	.	-9%	13%[59 µM]	.
O=C(CN1CCCCCC1)N/N=C/c1ccc2ccccc2c1	-18%	.	.	-20%	-29%[59 µM]	.
COc1ccc(S(=O)(=O)N(CC(=O)NCCc2ccccc2)c2ccc(Cl)cc2)cc1	.	.	.	-9%	16µM*	.
COc1ccc(N(CC(=O)NCCc2ccccc2)S(=O)(=O)c2ccc(OC)c(OC)c2)cc1	.	.	.	-6%	-7%[59 µM]	.
CC1CCCC(NC(=O)CCC(=O)c2ccc(F)cc2)C1C (stereo unspecified)	5%	.	-4%	-9%	18%	16µM*
COc1ccc(N2C(=O)Cc3ccccc3C2=O)cc1	7%	.	.	-5%	2%	.
N#CC1=C(N)N(c2ccc(Oc3ccccc3)cc2)C(=O)C1	20%	-11%	-1%	-1%	?	25µM*
CCn1c(SCC(=O)N2CCN(c3ccc(Cl)cc3)CC2)nc2ccccc2c1=O	-13%	23%	0%	1%	2µM*	0%
O=c1c2ccccc2nc(SCc2ccccc2)n1Cc1ccco1	-24%	?	4%	-7%	8%[59 µM]	20µM*
CC(=O)Nc1ccc(NC(=O)C(C)Sc2nc3ccccc3c(=O)n2Cc2ccco2)cc1 (stereo unspecified)	.	.	.	.	56µM*	.
CCCCNC(=O)C(CC)Sc1nc2ccccc2c(=O)n1Cc1ccco1 (stereo unspecified)	.	5%[46 µM]	.	12%	0%[59 µM]	.
Cc1ccc(CSc2nc3ccccc3c(=O)n2CCCC(=O)NCc2ccco2)cc1	25µM*	5%	3%	-1%	20%[59 µM]	15%
CCCn1c(SCC(=O)N2CCN(c3ccccc3)CC2)nc2ccccc2c1=O	6%	?	-1%	-5%	8%[12.7 µM]	-7%
CC1CCN(C(=O)CSc2nnc(-c3cc4ccccc4cc3O)n2Cc2ccco2)CC1	28µM*	?	2%	13%	?	?
CCn1c(SCC(=O)N2CCN(c3ccc(F)cc3)CC2)nc2ccccc2c1=O	-2%	-1%	7%	1%	-22%[59 µM]	25µM*
CCn1c(SCC(=O)N2CCOCC2)nc2oc3c(Cl)cc(Cl)cc3c(=O)c2c1=O	?	12%	-8%	1%	40µM*	?
COc1ccc(C(=O)CSc2nnc(-c3cc4ccccc4cc3O)n2Cc2ccco2)cc1	13%	?	-19%	26%	-69%	?
CC(C)Cn1c(SCC(=O)N2CCN(C(=O)c3ccco3)CC2)nc2ccccc2c1=O	16%	2%[46 µM]	1%	0%	?	32µM*
CCOC(=O)CSc1nc(-c2ccc(F)cc2)cc(C(F)(F)F)c1C#N	.	.	.	1%	2%[59 µM]	.

Reformatted: six of the compounds above
canonical_smiles | Sfp inh | Lamin A splicing | KDM4E inh | miR-21 FLuc | G9a inh | ALDH1A1 block
COc1ccc(NC(=O)CN(c2ccc([N+](=O)[O-])cc2)S(=O)(=O)c2ccccc2)cc1 | 6% | -17% | -6% | 19% | ? | -2%
Cc1ccc(N(CC(=O)N/N=C/c2ccco2)S(=O)(=O)c2ccccc2)cc1 | 32µM* | 8% | 0% | -3% | ? | 0%
COc1ccc(S(=O)(=O)N(CCc2ccccc2)CC(N)=O)cc1 | -24% | . | -4% | 2% | . | 7.9µM*
Cc1ccc(Cl)cc1NC(=O)C(C)n1nc(-c2ccccc2)ccc1=O (stereo unspecified) | . | . | . | -7% | -5%[59 µM] | .
CCCCn1nc(C(=O)N2CCN(S(=O)(=O)c3ccccc3)CC2)c2ccccc2c1=O | . | . | . | . | -40% | .
CCc1nn2c(=O)cc(COC(=O)c3cccc(NC(=O)c4cccs4)c3)nc2s1 | . | 2%[46 µM] | . | -9% | 13%[59 µM] | .

Bioassay records as filed in PubChem BioAssay.
